Patent US9420796B2 (priority 2013, dated 2016)

What was measured:
juvenile zebra mussels = assay: Juvenile mussel exposure to chlorine on colonized PVC plates; conditions: chlorine at 1 mg/l; 8 to 12° C.; mussels 0.75 to 5 mm
Method: The effect of chlorine on juvenile mussels was carried out at a nominal total chlorine residual of 1.0 mg/l.
The small size of juvenile mussels (1-5 mm) presented the problem of containment of the animals during exposure to chlorine. Vials perforated with many tiny holes were deemed impractical for two reasons. First, the tiny holes may inhibit the desired circulation of chlorinated water within the vial. Second, the small mussels would be difficult to remove from such vials if they were attached by byssal threads. It was decided that a suitable experimental unit was a small PVC plate that could be colonized by an appropriate number of juvenile mussels. PVC plates could be submerged for uniform exposure and were sampled easily as the small mussels slid off the plates with minimal force.
The mussels were colonized on to plates as two size classes, 0.75-2.0 mm and 2.5-5.0 mm. […]
The mussels were subjected to a continuous dose of 1.0 mg/chlorine. […] Total chlorine residual concentrations were monitored daily using the portable amperometric chlorine analyzer. […]
The sampling procedure involved randomly selecting one plate of each size class from one of the three experimental tanks. […] The condition of the other mussels was determined by their activity in the next 24 hours. […] The length of each mussel was measured to the nearest half millimeter.

zebra mussel veligers [1] = assay: Quantification of veligers in baffled tank sediments after chlorination; conditions: for Veligers in sediments after chlorination: after seven days
zebra mussel veligers [2] = assay: Effluent veliger density in continuous-flow baffled tanks receiving chlorine; conditions: for Mean Percent Removed: loss relative to control tank
Method: All experiments were conducted at a County Water Authority's water treatment plant. A continuous supply of approximately 29,000 liters per day (7600 US gal/day) was needed to carry out this work. Raw water for the study was obtained by tapping into the main water conduit as it entered the plant. An existing unused polymer injection line was plumbed with a ¾ in (18 mm) schedule 40 PVC pipe. A water shut off valve was put at the point where the PVC pipe coupled with polymer line so that the entire system could be dewatered if necessary.
The 18 mm PVC water supply line was plumbed into a manifold system which fed three 60 liter constant head tanks, each fitted with standpipe overflow drains. Ball valves were installed at the point of inflow allowing for better flow control. Four 30 liter baffled tanks were fed from each constant head tank (see FIG. 1). Flow to each baffled tank was controlled by a 12.5 mm (½ in) ball valve installed at the base of the head tank. Equal length (approximately 915 mm or 36 inches) 12.5 mm Tygon tubing delivered raw water (containing veligers) from the constant head tanks to the baffled tanks.
A fifth outflow valve for obtaining veliger density samples was fitted to each constant head tank. The baffled tanks were constructed of plexiglass and had dimensions of approximately 762 mm×300 mm×264 mm (2.5×1×0.88 ft). Each tank was fitted with 5 alternating vertical baffles (see FIG. 2). The flow rate through the tanks was maintained at 1 l/min. The alternating baffles produced a serpentine flow through the tanks with a mean calculated hydraulic residence time of 30 minutes. The effluent of the tanks drained into a collection system and discharged into a sump.
For all experiments, each group of four baffled tanks was considered one experimental unit. One of the baffled tanks was utilized as a control and received no oxidant while the other three served as replicates for a given oxidant dose.
Chlorine stock solutions were prepared by diluting aqueous sodium hypochlorite in filtered raw water. A variable speed peristaltic pump was utilized to continuously pump the stock solution into the system. Injection tees were fabricated from 12.5 mm (½ in) PVC tee fittings and small glass tubing. The tees were spliced into the Tygon tubing approximately half-way between the constant head tank and the baffled tank. This point of injection insured the mixing of stock chlorine solution and raw water before entering the experimental baffled tanks.
The effect of chlorine on veligers was tested at five nominal total chlorine residual concentrations: 0.1, 0.2, 0.5, 0.75 and 1.0 mg/l. Because the inhibition of settlement was one objective of these tests, the experiments were run for seven days.
One method of determining the fate of the veligers passing through the baffled tanks was based on sampling the tank effluent. This was done by placing a fine mesh sieve (initially 74 microns later 63 microns) under the effluent and allowing the effluent to be filtered for 15 to 30 minutes. During chlorination, the time period was 20 to 30 minutes. This time period allowed 20 to 30 liters of water to be filtered.
The material, including veligers, collected in the sieve was resuspended in approximately 20 ml of previously filtered raw water. The concentrated veligers then were counted and densities estimated in the same manner as constant head tank samples.

chlorine
Time of continuous application required to kill juvenile zebra mussels (juvenile zebra mussels): over 25 days | Veligers in sediments after chlorination (zebra mussel veligers [1]; 0.2 mg/L Cl2, Area #1): 554 veligers per cm^2 | Veligers in sediments after chlorination (zebra mussel veligers [1]; 0.2 mg/L Cl2, Area #2): 90 veligers per cm^2 | Veligers in sediments after chlorination (zebra mussel veligers [1]; 0.2 mg/L Cl2, Area #3): 2.2 veligers per cm^2 | Veligers in sediments after chlorination (zebra mussel veligers [1]; 1 mg/L Cl2, Area #1): 1887 veligers per cm^2 | Veligers in sediments after chlorination (zebra mussel veligers [1]; 1 mg/L Cl2, Area #2): 120 veligers per cm^2 | Veligers in sediments after chlorination (zebra mussel veligers [1]; 1 mg/L Cl2, Area #3): 3.4 veligers per cm^2 | Missing veligers accounted for by sediments in the first section of the tank (zebra mussel veligers [1]; 1.0 mg/l chlorine test): 48% | Veligers that entered the baffled tanks observed in the tank effluents (zebra mussel veligers [2]; all the chlorine tests): less than 5% | Concentration at which settlement of veligers and early stage bivalves is inhibited (zebra mussel veligers [2]; as shown in Example 2): ≥ 0.1 mg/L | Percent loss of veligers relative to control (zebra mussel veligers [2]; chlorine concentrations ranging from 0.1 to 1.0 mg/l): over 97% | Reduction in veliger numbers compared to controls (zebra mussel veligers [2]; doses over 0.1 mg/l): over 97% | Effluent veliger concentration, tanks receiving chlorine, mean (zebra mussel veligers [2]; nominal chlorine 0.1 mg/L): 0 number/L | Mean Percent Removed (zebra mussel veligers [2]; nominal chlorine 0.1 mg/L): 100% | Effluent veliger concentration, tanks receiving chlorine, mean (zebra mussel veligers [2]; nominal chlorine 0.2 mg/L): 0.05 number/L | Mean Percent Removed (zebra mussel veligers [2]; nominal chlorine 0.2 mg/L): 99.8% | Effluent veliger concentration, tanks receiving chlorine, mean (zebra mussel veligers [2]; nominal chlorine 0.5 mg/L): 1.10 number/L | Mean Percent Removed (zebra mussel veligers [2]; nominal chlorine 0.5 mg/L): 97.5% | Effluent veliger concentration, tanks receiving chlorine, mean (zebra mussel veligers [2]; nominal chlorine 0.75 mg/L): 0 number/L | Mean Percent Removed (zebra mussel veligers [2]; nominal chlorine 0.75 mg/L): 100% | Mean Percent Removed (zebra mussel veligers [2]; nominal chlorine 1.0 mg/L): 99.9% and 100%

Values joined by “and” are separate entries in the source; they are usually repeats but may differ in a detail not shown here. Identical values can stand only once.
